{"sequences": {"note": "Amino acid sequences for entries named in this document (tags omitted). A change or cut given only in a name is not applied to a line headed by its entry. Residues count along the entry.", "UniProt P04439": "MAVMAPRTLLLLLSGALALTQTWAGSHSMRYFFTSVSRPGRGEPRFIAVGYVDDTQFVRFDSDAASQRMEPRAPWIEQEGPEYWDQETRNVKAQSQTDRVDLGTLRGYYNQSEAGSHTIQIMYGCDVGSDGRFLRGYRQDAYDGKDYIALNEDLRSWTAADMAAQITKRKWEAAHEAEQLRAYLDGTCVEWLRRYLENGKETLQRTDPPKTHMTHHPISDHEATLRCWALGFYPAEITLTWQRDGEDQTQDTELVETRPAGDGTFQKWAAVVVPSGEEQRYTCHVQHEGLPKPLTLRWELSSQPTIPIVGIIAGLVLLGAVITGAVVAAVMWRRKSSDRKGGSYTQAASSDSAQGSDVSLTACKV", "UniProt P01889, 25-362": "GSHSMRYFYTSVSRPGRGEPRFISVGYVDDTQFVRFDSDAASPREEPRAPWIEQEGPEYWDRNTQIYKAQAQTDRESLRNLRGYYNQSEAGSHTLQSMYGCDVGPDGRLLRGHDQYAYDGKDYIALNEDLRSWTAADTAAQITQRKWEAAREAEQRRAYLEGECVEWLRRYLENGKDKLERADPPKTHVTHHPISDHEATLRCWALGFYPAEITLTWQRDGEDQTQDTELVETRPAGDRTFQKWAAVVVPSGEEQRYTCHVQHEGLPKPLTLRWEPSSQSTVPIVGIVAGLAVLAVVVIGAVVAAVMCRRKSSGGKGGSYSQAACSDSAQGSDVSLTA"}, "source": "patent US20040053822A1", "about": "“Inducing cellular immune responses to mage2/3 using peptide and nucleic acid compositions” (priority 2002, published 2004)", "key": {"HLA-DRB1*0701 (DR7)": {"target": "HLA-DRB1*0701 (DR7) (Homo sapiens, UniProt P01903+P01911, A100R/A102G/A103Q/D57E/D86V/E43K/F76Y/K127E/L162R/M171V/P40G/Q125H/Q99D/R33Q/R42Y/R54Q/S133A/S66F/T210M/V115G/Y107V/Y59L/Y89S)", "assay": "Purified HLA class II peptide binding assay, DRB1*0701", "settings": "for DR7 binding data: Mage 2 DR super motif peptides (Table XIX A)"}, "HLA-DRB1*0101 (DR1)": {"target": "HLA-DRB1*0101 (DR1) (Homo sapiens, UniProt P01903+P01911, A100R/D57E/F55L/F60I/F76Y/I96L/L162R/M171V/P40L/Q125E/R42F/V115G/Y59C)", "assay": "Purified HLA class II peptide binding assay, DRB1*0101"}, "HLA-DRB1*0401 (DR4w4)": {"target": "HLA-DRB1*0401 (DR4w4) (Homo sapiens, UniProt P01903+P01911, A100K/A169T/F76Y/I96L/K127E/L162R/M171V/N62H/P40V/Q125Y/R42H/S133A/S149N/S66Y/V115G/V209L/W38E)", "assay": "Purified HLA class II peptide binding assay, DRB1*0401"}, "HLA-A*0201": {"target": "HLA-A*0201 (Homo sapiens, UniProt P04439, D140Y/D185E/D98H/E176V/E277Q/G131W/G231S/I119V/I121R/I166T/I218V/L300P/L318F/N151K/N90K/P208A/P217A/Q86G/Q94H/R138H/R169H/T345S)", "assay": "Purified HLA class I peptide binding assay, A*0201", "settings": "Table XXVIIa"}, "HLA-A*0202": {"target": "HLA-A*0202 (Homo sapiens, UniProt P04439, D140Y/D185E/D98H/E176V/E277Q/G131W/G231S/I119L/I121R/I166T/I218V/L180W/L300P/L318F/N151K/N90K/P208A/P217A/Q67R/Q86G/Q94H/R138H/R169H/T345S)", "assay": "Purified HLA class I peptide binding assay, A*0202", "settings": "binding affinity, A2 supermotif peptides and analogs"}, "[1]": {"test_system": "A2-supertype molecules (A*0201, A*0202, A*0203, A*0206, and A*6802)", "assay": "A2-supertype cross-reactive binding (five alleles)", "set-up": "species or system human"}, "HLA-B*3501": {"target": "HLA-B*3501 (Homo sapiens, UniProt P01889, A329T/A93T/A95T/C349S/D201E/D98Y/E176V/E187L/E204Q/E69T/I218V/K202T/L119I/Q94N/R155S/R180L/S121R/S35A/S48A/T118I/V127L/V306I/V36M/Y140S/Y91F)", "assay": "Purified HLA class I peptide binding assay, B*3501"}, "HLA-B*5401": {"target": "HLA-B*5401 (Homo sapiens, UniProt P01889, A329T/C349S/D138N/D201E/E176V/E187T/E204Q/E69G/I76V/K202T/L119W/R155S/R180L/S121T/S35A/S48A/V127L/V306I/V36M/Y140L)", "assay": "Purified HLA class I peptide binding assay, B*5401"}, "[2]": {"test_system": "B7-supertype molecules (B*0702, B*3501, B*5101, B*5301, and B*5401)", "assay": "B7-supertype cross-reactive binding (five alleles)", "set-up": "species or system human"}, "HLA-B*0702": {"target": "HLA-B*0702 (Homo sapiens, UniProt P01889)", "assay": "Purified HLA class I peptide binding assay, B*0702"}, "HLA-B*5101 (B51)": {"target": "HLA-B*5101 (B51) (Homo sapiens, UniProt P01889, A329T/A93T/A95T/C349S/D138N/D201E/D98Y/E187L/E204Q/E69T/G107R/I218V/K202T/L105A/L119W/N104I/Q94N/R106L/R155S/R180L/S101N/S121T/S35A/S48A/V306I/V36M/Y195H/Y91F)", "assay": "Purified HLA class I peptide binding assay, B51", "settings": "B*5101 nM, binding affinity, HLA-B7 supermotif-bearing peptides"}, "HLA-B*5301": {"target": "HLA-B*5301 (Homo sapiens, UniProt P01889, A329T/A93T/A95T/C349S/D201E/D98Y/E176V/E187L/E204Q/E69T/G107R/I218V/K202T/L105A/L119I/N104I/Q94N/R106L/R155S/R180L/S101N/S121R/S35A/S48A/T118I/V127L/V306I/V36M/Y140S/Y91F)", "assay": "Purified HLA class I peptide binding assay, B*5301"}, "[3]": {"test_system": "peptide-specific CTL from PBMC", "assay": "CTL immunogenicity of A3, B7 supermotif and A1, A24 motif peptides (methodology analogous to A2)", "type": "cell-based, human", "settings": "B7 supermotif peptide, positive/total tested"}, "[4]": {"settings": "Mage 2/3 DR motif peptides, unit not given"}, "[5]": {"settings": "Mage 2 DR super motif peptides (Table XIX A)"}, "[6]": {"settings": "binding affinity, HLA-B7 supermotif-bearing peptides"}, "[7]": {"settings": "binding affinity, HLA-B7 supermotif-bearing peptides, read-out: B*5401 nM"}}, "note": "Where two headings read alike, the source gives them in different places.", "data": [{"compound": "CC[C@H](C)[C@H](NC(=O)[C@H](C)NC(=O)[C@H](CC(C)C)NC(=O)[C@@H](NC(=O)[C@@H](NC(=O)[C@@H](NC(=O)[C@H](CC(C)C)NC(=O)[C@H](CC(C)C)NC(=O)CNC(=O)[C@H](C)N)[C@@H](C)CC)[C@@H](C)CC)C(C)C)C(=O)N[C@H](C(=O)N[C@@H](C)C(=O)N[C@@H](CCCNC(=N)N)C(=O)N[C@@H](CCC(=O)O)C(=O)NCC(=O)O)[C@@H](C)CC", "values": [{"measurement": "IC50", "setting": "HLA-DRB1*0701 (DR7)", "result": "> 9610", "unit": "nM"}]}, {"compound": "CC[C@H](C)[C@H](NC(=O)[C@H](CCC(N)=O)NC(=O)[C@H](CC(N)=O)NC(=O)[C@H](CC(=O)O)NC(=O)CNC(=O)[C@H](CC(C)C)NC(=O)[C@H](CC(C)C)NC(=O)CNC(=O)[C@@H](N)CC(=O)O)C(=O)N[C@@H](CCSC)C(=O)N1CCC[C@H]1C(=O)N[C@@H](CCCCN)C(=O)N[C@@H](C)C(=O)NCC(=O)N[C@@H](CC(C)C)C(=O)O", "values": [{"measurement": "DR1 binding data", "setting": "HLA-DRB1*0101 (DR1); [4]", "result": "−0.0003"}, {"measurement": "DR4w4 binding data", "setting": "HLA-DRB1*0401 (DR4w4); [4]", "result": "−0.0032"}]}, {"compound": "CSCC[C@H](NC(=O)[C@@H](NC(=O)[C@H](CCC(N)=O)NC(=O)[C@H](CC(N)=O)NC(=O)[C@H](CC(=O)O)NC(=O)CNC(=O)[C@H](CC(C)C)NC(=O)[C@H](CC(C)C)NC(=O)CNC(=O)[C@@H](N)CC(=O)O)C(C)C)C(=O)N1CCC[C@H]1C(=O)N[C@@H](CCCCN)C(=O)N[C@H](C(=O)NCC(=O)N[C@@H](CC(C)C)C(=O)O)[C@@H](C)O", "values": [{"measurement": "DR1 binding data", "setting": "HLA-DRB1*0101 (DR1); [5]", "result": "−0.0005"}, {"measurement": "DR4w4 binding data", "setting": "HLA-DRB1*0401 (DR4w4); [5]", "result": "−0.0032"}, {"measurement": "DR7 binding data", "setting": "HLA-DRB1*0701 (DR7)", "result": "−0.0011"}]}, {"compound": "CC[C@H](C)[C@H](NC(=O)[C@H](Cc1c[nH]cn1)NC(=O)[C@@H]1CCCN1C(=O)[C@@H](N)CCC(=O)O)C(=O)N[C@@H](CO)C(=O)N[C@@H](Cc1ccc(O)cc1)C(=O)N1CCC[C@H]1C(=O)N1CCC[C@H]1C(=O)N[C@@H](CC(C)C)C(=O)N[C@@H](Cc1c[nH]cn1)C(=O)N[C@@H](CCC(=O)O)C(=O)N[C@@H](CCCNC(=N)N)C(=O)N[C@@H](C)C(=O)N[C@@H](CC(C)C)C(=O)N[C@@H](CCCNC(=N)N)C(=O)O", "values": [{"measurement": "DR1 binding data", "setting": "HLA-DRB1*0101 (DR1); [5]", "result": "−0.0003"}, {"measurement": "DR4w4 binding data", "setting": "HLA-DRB1*0401 (DR4w4); [5]", "result": "−0.0032"}]}, {"compound": "CSCC[C@H](NC(=O)[C@@H](N)CCCCN)C(=O)N[C@H](C(=O)N[C@@H](CCC(=O)O)C(=O)N[C@@H](CC(C)C)C(=O)N[C@H](C(=O)N[C@@H](Cc1c[nH]cn1)C(=O)N[C@@H](Cc1ccccc1)C(=O)N[C@@H](CC(C)C)C(=O)O)C(C)C)C(C)C", "values": [{"measurement": "IC50", "setting": "HLA-A*0201", "result": 9.8, "unit": "nM"}, {"measurement": "IC50", "setting": "HLA-A*0202", "result": 15, "unit": "nM"}, {"measurement": "No. A2 Alleles Crossbound", "setting": "[1]; of five A2-supertype alleles tested", "result": 5}, {"measurement": "No. A2 Alleles Crossbound", "setting": "[1]; of five A2-supertype alleles, Table XXVIIa", "result": 4}]}, {"compound": "CC(C)C[C@H](N)C(=O)NCC(=O)N[C@@H](CCC(=O)O)C(=O)N[C@H](C(=O)N1CCC[C@H]1C(=O)N[C@@H](C)C(=O)N[C@@H](C)C(=O)N[C@@H](CC(=O)O)C(=O)N[C@@H](CO)C(=O)N1CCC[C@H]1C(=O)N[C@@H](CO)C(=O)N1CCC[C@H]1C(=O)N1CCC[C@H]1C(=O)N[C@@H](Cc1c[nH]cn1)C(=O)N[C@@H](CO)C(=O)O)C(C)C", "values": [{"measurement": "DR1 binding data", "setting": "HLA-DRB1*0101 (DR1); [5]", "result": "−0.0005"}, {"measurement": "DR4w4 binding data", "setting": "HLA-DRB1*0401 (DR4w4); [5]", "result": "−0.0032"}, {"measurement": "DR7 binding data", "setting": "HLA-DRB1*0701 (DR7)", "result": "−0.0011"}]}, {"compound": "CC[C@H](C)[C@H](NC(=O)[C@@H]1CCCN1C(=O)[C@H](Cc1ccc(O)cc1)NC(=O)[C@H](CC(N)=O)NC(=O)[C@H](CCSC)NC(=O)[C@@H](NC(=O)[C@@H](NC(=O)[C@@H]1CCCN1C(=O)[C@@H](N)CC(C)C)[C@@H](C)O)[C@@H](C)O)C(=O)O", "values": [{"measurement": "IC50", "setting": "HLA-B*3501; [6]", "result": 343, "unit": "nM"}, {"measurement": "IC50", "setting": "HLA-B*5401; [7]", "result": 4.2, "unit": "nM"}, {"measurement": "No. of B7 Alleles Crossbound", "setting": "[2]", "result": 5}, {"measurement": "IC50", "setting": "HLA-B*0702", "result": 100, "unit": "nM"}]}, {"compound": "CC[C@H](C)[C@H](NC(=O)[C@@H](NC(=O)[C@@H](NC(=O)[C@H](CC(C)C)NC(=O)[C@H](CC(C)C)NC(=O)CNC(=O)[C@H](C)NC(=O)[C@H](CCCCN)NC(=O)[C@@H]1CCCN1C(=O)[C@@H](N)CCSC)[C@@H](C)CC)[C@@H](C)CC)C(=O)O", "values": [{"measurement": "IC50", "setting": "HLA-B*3501", "result": 2400, "unit": "nM"}, {"measurement": "IC50", "setting": "HLA-B*5101 (B51)", "result": 62, "unit": "nM"}, {"measurement": "IC50", "setting": "HLA-B*5301", "result": 176, "unit": "nM"}, {"measurement": "IC50", "setting": "HLA-B*5401", "result": 102, "unit": "nM"}, {"measurement": "No. of B7 Alleles Crossbound", "setting": "[2]", "result": 4}, {"measurement": "IC50", "setting": "HLA-B*0702", "result": 324, "unit": "nM"}]}, {"compound": "CC[C@H](C)[C@H](NC(=O)[C@H](Cc1ccc(O)cc1)NC(=O)[C@H](CC(C)C)NC(=O)[C@H](Cc1c[nH]cn1)NC(=O)[C@H](CO)NC(=O)[C@@H](NC(=O)[C@@H]1CCCN1C(=O)[C@@H](N)C(C)C)[C@@H](C)CC)C(=O)N[C@@H](CC(C)C)C(=O)O", "values": [{"measurement": "CTL Wild-type", "setting": "[3]", "result": "6/6"}, {"measurement": "CTL Tumor", "setting": "[3]; tumor targets", "result": "0/6"}]}, {"compound": "CC[C@H](C)[C@H](NC(=O)[C@H](CO)NC(=O)[C@H](CCC(N)=O)NC(=O)[C@H](CO)NC(=O)[C@H](Cc1c[nH]c2ccccc12)NC(=O)[C@H](CC(C)C)NC(=O)[C@@H]1CCCN1C(=O)[C@@H](N)Cc1ccc(O)cc1)C(=O)O", "values": [{"measurement": "IC50", "setting": "HLA-B*3501; [6]", "result": 3790, "unit": "nM"}, {"measurement": "IC50", "setting": "HLA-B*5301; [6]", "result": 258, "unit": "nM"}, {"measurement": "IC50", "setting": "HLA-B*5401; [7]", "result": 238, "unit": "nM"}, {"measurement": "No. of B7 Alleles Crossbound", "setting": "[2]", "result": 4}, {"measurement": "IC50", "setting": "HLA-B*0702", "result": 60, "unit": "nM"}]}, {"compound": "EPIHSYPPLHERALR", "values": [{"measurement": "DR7 binding data", "setting": "HLA-DRB1*0701 (DR7)", "result": "−0.0011"}]}]}
